Sequences of proteins named here, by UniProt entry; tags and fusion partners are left off. Residues count along the entry.
UniProt Q9HCR9, 445-933: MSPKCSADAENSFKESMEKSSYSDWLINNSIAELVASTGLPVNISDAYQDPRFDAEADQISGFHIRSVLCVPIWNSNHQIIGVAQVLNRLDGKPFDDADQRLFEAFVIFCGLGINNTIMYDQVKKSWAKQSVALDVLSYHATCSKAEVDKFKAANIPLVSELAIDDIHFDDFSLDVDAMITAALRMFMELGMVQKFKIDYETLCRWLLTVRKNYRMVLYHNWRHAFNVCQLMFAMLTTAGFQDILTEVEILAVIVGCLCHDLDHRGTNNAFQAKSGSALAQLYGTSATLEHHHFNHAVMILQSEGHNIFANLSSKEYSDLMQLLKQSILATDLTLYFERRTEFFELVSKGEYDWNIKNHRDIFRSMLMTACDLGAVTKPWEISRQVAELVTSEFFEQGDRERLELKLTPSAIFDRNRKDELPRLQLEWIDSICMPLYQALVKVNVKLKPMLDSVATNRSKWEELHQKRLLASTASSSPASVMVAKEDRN

In US6828473B2, “Modulation of PDE11A activity” (Pfizer Inc., priority 2000, dated 2004):

Molecular target: T1, recombinant human PDE11A (Homo sapiens, UniProt Q9HCR9)
T1 construct: made in house; host or cells: Sf9 insect cells (baculovirus)
Experiment: PDE inhibition SPA assay, PDE11A
Assay type: biochemical
Conditions: comparison of IC50 values

selectivity for inhibiting PDE11A when compared to PDEs 7-10: demonstrated selectivity
Structure (SMILES): Cl.O=C(O)C1CCN(c2nc(NCc3ccc4c(c3)OCO4)c3cc(Cl)ccc3n2)CC1 [UK-227,786 (E4021), 1-[4-[(1,3-benzodioxol-5-ylmethyl)amino]-6-chloro-2-quinazolinyl]-4-piperidinecarboxylic acid, monohydrochloride]
